{"source": "patent US20060111447A1", "about": "“Inhibiting progressive cognitive impairment” (priority 2002, published 2006)", "test_system": "CHO cells", "conditions": "cells of FIG. 10A, untreated or various concentrations of nimesulide", "data": [{"smiles": "CS(=O)(=O)Nc1ccc([N+](=O)[O-])cc1Oc1ccccc1", "note": "[nimesulide, 4-nitro-2-phenoxymethanesulfonanilide]", "values": [{"measurement": "cell viability (MTT assay)", "result": "equal viability"}]}]}
